This note sets out measurements from patent publication US10351558B2, “Factor IXa inhibitors” (Merck Sharp & Dohme Corp., priority 2015, dated 2019).

Chains of the proteins cited; added tags and fusions are not shown. Residues count along the entry.
UniProt P00740, 227-461: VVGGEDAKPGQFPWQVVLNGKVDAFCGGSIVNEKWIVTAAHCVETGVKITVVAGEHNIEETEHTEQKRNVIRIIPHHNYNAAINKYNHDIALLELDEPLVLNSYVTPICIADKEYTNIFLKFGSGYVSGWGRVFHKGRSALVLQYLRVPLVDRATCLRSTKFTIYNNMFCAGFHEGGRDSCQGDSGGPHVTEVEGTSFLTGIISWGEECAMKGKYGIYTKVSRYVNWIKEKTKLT
UniProt P00740, 47-191 partner: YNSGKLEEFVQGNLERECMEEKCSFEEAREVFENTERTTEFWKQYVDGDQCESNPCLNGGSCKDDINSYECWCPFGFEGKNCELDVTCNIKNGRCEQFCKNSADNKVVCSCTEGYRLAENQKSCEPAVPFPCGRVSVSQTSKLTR

A word on the IC50: it is the midpoint of a concentration-inhibition curve. Lower therefore signals greater potency in that assay.

Structures can show the parent of a compound that is named as a salt.

The target of the assay is hFIXa (Homo sapiens (Human), UniProt P00740). In words: Determination of inhibitory activity against Factor IXa (cleavage of fluorescent peptide CH3SO2-D-CHG-Gly-Arg-AFC). The class given is biochemical.

In the case of `Cc1ccc2c(c1)c(S(C)(=O)=O)c1n2C[C@@](NC(=O)c2ccc(-n3cnnc3)cc2Cl)(c2ccccc2)CC1` [Example 177], half-maximal inhibition (IC50) required 18.3 nM. For `Cc1ccc2c(c1)c(-c1noc(C)n1)c1n2C[C@@](NC(=O)c2ccc(-n3cnnc3)cc2Cl)(c2ccccc2)CC1` [Example 178] the value was 3.74 nM.

On to `Cc1ccc2c(c1)c(-c1nnn[nH]1)c1n2C[C@@](NC(=O)c2ccc(-n3cnc(C)n3)cc2Cl)(c2ccccc2)CC1` [Example 179], for which the IC50 worked out at 4.22 nM.

Turning to `Cc1ccc2c(c1)c(C(N)=O)c1n2C[C@@](NC(=O)c2ccc(-c3ccc(=O)n(C)c3)cc2Cl)(c2ccccc2)CC1` [Example 180], inhibition was half-maximal at 3.16 nM (IC50). Compound `COC(=O)/C=C/c1c2n(c3ccc(C)cc13)C[C@@](NC(=O)c1ccc(-n3cnnc3)cc1Cl)(c1ccccc1)CC2` [Example 181] had an IC50 of 3.6 nM. For `Cc1ccc2c(c1)c(/C=C/C(=O)O)c1n2C[C@@](NC(=O)c2ccc(-n3cnc(C)n3)cc2Cl)(c2ccccc2)CC1` [Example 182] the value was 1.18 nM; for `COC(=O)Cc1c2n(c3ccc(C)cc13)C[C@@](NC(=O)c1ccc(-n3cnc(C)n3)cc1Cl)(c1ccccc1)CC2` [Example 184], 4.68 nM. The value for `COC(=O)CCc1c2n(c3ccc(C)cc13)C[C@@](NC(=O)c1ccc(-n3cnnc3)cc1Cl)(c1ccccc1)CC2` [Example 185] was 19.1 nM; that for `COC(=O)c1c2n(c3ccc(C)cc13)C[C@@](NC(=O)c1ccc(-n3cnn(C)c3=O)cc1Cl)(c1ccccc1)CC2` [Example 186] was 7.12 nM; that for `Cc1ccc2c(c1)c(-c1cccnc1)c1n2C[C@@](NC(=O)c2ccc(-n3cnnc3C)cc2Cl)(c2ccccc2)CC1` [Example 187] was 3.51 nM. Take `Cc1ccc2c(c1)c(C(=O)O)c1n2C[C@@](NC(=O)c2ccc(-n3cnn(C)c3=O)cc2Cl)(c2cccc(F)c2)CC1` [Example 188]: the half-maximal inhibitory concentration (IC50) is 0.509 nM. The value for `Cc1ccc2c(c1)c(-c1cncc(N)c1)c1n2C[C@@](NC(=O)c2ccc(-n3cnnc3)cc2Cl)(c2ccccc2)CC1` [Example 189] was 1.58 nM.

In turn, `Cc1ccc2c(c1)c(-c1cnc(N)nc1)c1n2C[C@@](NC(=O)c2ccc(-n3cnnc3)cc2Cl)(c2ccccc2)CC1` [Example 190] displayed an IC50 of 7.11 nM.

As for `Cc1ccc2c(c1)c(-c1cncc(F)c1)c1n2C[C@@](NC(=O)c2ccc(-n3cnnc3)cc2Cl)(c2ccccc2)CC1` [Example 191], the IC50 was determined as 5.17 nM. `Cc1ccc2c(c1)c(C(=O)C(F)(F)F)c1n2C[C@@](NC(=O)c2ccc(-n3cnnc3)cc2Cl)(c2ccccc2)CC1` [Example 192, 2-chloro-N-(2-methyl-7-phenyl-10-(2,2,2-trifluoroacetyl)-6,7,8,9-tetrahydropyrido[1,2-a]indol-7-yl)-4-(4H-1,2,4-triazol-4-yl)benzamide, TFA] came in with an IC50 of 5.19 nM. `Cc1ccc2c(c1)c([C@@H](O)C(F)(F)F)c1n2C[C@@](NC(=O)c2ccc(-n3cnnc3)cc2Cl)(c2ccccc2)CC1` [Example 193, 2-chloro-N-(2-methyl-7-phenyl-10-((R)-2,2,2-trifluoro-1-hydroxyethyl)-6,7,8,9-tetrahydropyrido[1,2-a]indol-7-yl)-4-(4H-1,2,4-triazol-4-yl)benzamide] came in with an IC50 of 5.72 nM. Turning to `Cc1ccc2c(c1)c([C@H](O)C(F)(F)F)c1n2C[C@@](NC(=O)c2ccc(-n3cnnc3)cc2Cl)(c2ccccc2)CC1` [Example 194, 2-chloro-N-(2-methyl-7-phenyl-10-((S)-2,2,2-trifluoro-1-hydroxyethyl)-6,7,8,9-tetrahydropyrido[1,2-a]indol-7-yl)-4-(4H-1,2,4-triazol-4-yl)benzamide], inhibition was half-maximal at 5.55 nM (IC50). Compound `COC(=O)/C=C/c1c2n(c3ccc(C)cc13)C[C@@](NC(=O)c1ccc(-n3cnc(C)n3)cc1Cl)(c1ccccc1)CC2` [Example 195] displayed an IC50 of 9.97 nM. Consider `Cc1ccc2c(c1)c(-c1cncc(C#N)c1)c1n2CC(NC(=O)c2ccc(-n3cnnc3)cc2Cl)(c2ccccc2)CC1` (centres unmarked) [Example 196], for which the IC50 turned out to be 11.9 nM. For `COC(=O)Cc1c2n(c3ccc(C)cc13)C[C@@](NC(=O)c1c(Cl)cc(-n3cnnc3)cc1Cl)(c1ccccc1)CC2` [Example 197] the value was 1.87 nM. In the case of `COc1cncc(-c2c3n(c4ccc(C)cc24)C[C@@](NC(=O)c2ccc(-n4cnnc4)cc2Cl)(c2ccccc2)CC3)c1` [Example 198], the IC50 was 3.27 nM. The value for `Cc1ccc2c(c1)c(-c1cncc(CO)c1)c1n2C[C@@](NC(=O)c2ccc(-n3cnnc3)cc2Cl)(c2ccccc2)CC1` [Example 199] was 2.75 nM; that for `COc1ccc(-c2c3n(c4ccc(C)cc24)C[C@@](NC(=O)c2ccc(-n4cnnc4)cc2Cl)(c2ccccc2)CC3)cn1` [Example 200] was 2.63 nM. For `COc1ccncc1-c1c2n(c3ccc(C)cc13)C[C@@](NC(=O)c1ccc(-n3cnnc3)cc1Cl)(c1ccccc1)CC2` [Example 201] the value was 14.9 nM; for `Cc1ccc2c(c1)c(-c1ccc(CO)nc1)c1n2C[C@@](NC(=O)c2ccc(-n3cnnc3)cc2Cl)(c2ccccc2)CC1` [Example 202], 5.78 nM; for `COc1ncc(-c2c3n(c4ccc(C)cc24)C[C@@](NC(=O)c2ccc(-n4cnnc4)cc2Cl)(c2ccccc2)CC3)cn1` [Example 203], 1.71 nM. For `Cc1ccc2c(c1)c(C1=CC(=O)N(C)CC1)c1n2C[C@@](NC(=O)c2ccc(-n3cnnc3)cc2Cl)(c2ccccc2)CC1` [Example 204] the value was 4.04 nM; for `Cc1ccc2c(c1)c(S(C)(=O)=O)c1n2C[C@@](NC(=O)c2c(Cl)cc(-n3cnnc3)cc2Cl)(c2ccccc2)CC1` [Example 205, (S)-2,6-dichloro-N-(2-methyl-10-(methylsulfonyl)-7-phenyl-6,7,8,9-tetrahydropyrido[1,2-a]indol-7-yl)-4-(4H-1,2,4-triazol-4-yl)benzamide], 5.3 nM. Take `Cc1ccc2c(c1)c(-c1cnc(C3CC3)nc1)c1n2C[C@@](NC(=O)c2ccc(-n3cnnc3)cc2Cl)(c2ccccc2)CC1` [Example 206]: the IC50 is 1.58 nM.

In turn, `CC(=O)c1ccc(-c2c3n(c4ccc(C)cc24)C[C@@](NC(=O)c2ccc(-n4cnnc4)cc2Cl)(c2ccccc2)CC3)cn1` [Example 207] had an IC50 of 6.94 nM. `Cc1ccc2c(c1)c(-c1cncc(C(=O)O)c1)c1n2C[C@@](NC(=O)c2ccc(-n3cnnc3)cc2Cl)(c2ccccc2)CC1` [Example 208] yielded a concentration for half-maximal inhibition (IC50) of 8.27 nM. The value for `COc1ncc(-c2c3n(c4ccc(C)cc24)C[C@@](NC(=O)c2ccc(-n4cnnc4)cc2Cl)(c2ccccc2)CC3)cc1F` [Example 209] was 6.18 nM; that for `Cc1ccc2c(c1)c(C(=O)C(F)(F)F)c1n2C[C@@](NC(=O)c2c(Cl)cc(-n3cnnc3)cc2Cl)(c2ccccc2)CC1` [Example 210] was 13.6 nM. Regarding `COc1ncc(-c2c3n(c4ccc(C)cc24)C[C@@](NC(=O)c2ccc(-n4cnnc4)cc2Cl)(c2ccccc2)CC3)cc1C#N` [Example 211], it took 6.77 nM to reach half-maximal inhibition (IC50).

Compound `COC(=O)c1ccc(-c2c3n(c4ccc(C)cc24)C[C@@](NC(=O)c2ccc(-n4cnnc4)cc2Cl)(c2ccccc2)CC3)cn1` [Example 212] gave an IC50 of 7.19 nM. The value for `Cc1ccc2c(c1)c(-c1cncc(C(C)(C)O)c1)c1n2C[C@@](NC(=O)c2ccc(-n3cnnc3)cc2Cl)(c2ccccc2)CC1` [Example 213] was 4.37 nM. `Cc1ccc2c(c1)nc1n2CC(NC(=O)c2ccc(-n3cnnc3)cc2Cl)(c2cccc(F)c2)CS1` (centres unmarked) [Example 214, 2-chloro-N-(3-(3-fluorophenyl)-8-methyl-3,4-dihydro-2H-benzo[4,5]imidazo[2,1-b][1,3]thiazin-3-yl)-4-(4H-1,2,4-triazol-4-yl)benzamide] displayed an IC50 of 5.4 nM. The compound `Cc1ccc2c(c1)nc1n2CC(NC(=O)c2ccc(-n3cnnc3)cc2Cl)(c2cccc(F)c2)CO1` (centres unmarked) [Example 215, 2-chloro-N-[3-(3-fluorophenyl)-8-methyl-3,4-dihydro-2H-[1,3]oxazino[3,2-a]benzimidazol-3-yl]-4-(4H-1,2,4-triazol-4-yl)benzamide] came in with a half-inhibitory concentration (IC50) of 6840 nM.
